Reference: US20070105870A1

The chains behind the UniProt entries cited, without tags or fusion partners.
UniProt P23975, whole entry: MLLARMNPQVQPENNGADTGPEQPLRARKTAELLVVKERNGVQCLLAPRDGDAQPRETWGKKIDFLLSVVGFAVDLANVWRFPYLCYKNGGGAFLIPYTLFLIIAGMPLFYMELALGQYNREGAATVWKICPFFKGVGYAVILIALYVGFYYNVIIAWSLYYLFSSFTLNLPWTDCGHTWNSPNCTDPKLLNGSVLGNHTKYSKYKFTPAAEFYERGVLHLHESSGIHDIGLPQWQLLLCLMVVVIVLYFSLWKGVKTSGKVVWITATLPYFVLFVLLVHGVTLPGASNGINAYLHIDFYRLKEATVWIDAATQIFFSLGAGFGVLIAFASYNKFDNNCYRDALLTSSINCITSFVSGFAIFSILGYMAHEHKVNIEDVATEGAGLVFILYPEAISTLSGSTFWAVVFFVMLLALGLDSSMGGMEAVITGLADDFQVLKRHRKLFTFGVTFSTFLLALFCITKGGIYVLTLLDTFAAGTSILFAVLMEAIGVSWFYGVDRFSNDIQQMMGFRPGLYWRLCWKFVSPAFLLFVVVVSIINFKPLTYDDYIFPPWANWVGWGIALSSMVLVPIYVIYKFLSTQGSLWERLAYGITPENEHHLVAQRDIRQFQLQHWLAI

Target: human noradrenaline transporter (hNET) (Homo sapiens, UniProt P23975)
Experiment: [3H]Nisoxetine binding to the human noradrenaline transporter (SPA, HEK-293 membranes)
Conditions: read-out: NRI Ki; inhibition of [3H]Nisoxetine (12 nM) binding to hNET membranes; Ki from IC50 by Cheng-Prusoff

Structure (SMILES) | Ki
FC(F)Oc1ccccc1CC(c1ccccc1)N1CCNCC1 (centres unmarked) | 28 nM
FC(F)Oc1ccccc1CC(c1ccccc1)N1CCNCC1 (single isomer, unassigned) | 14 nM

Only a part of the results on these compounds is given; other tests are left out.
